Source: patent US20250115600A1, “COVALENT MODIFIERS OF AKT1 AND USES THEREOF” (Terremoto Biosciences, Inc., priority 2022, published 2025)

The chains behind the UniProt entries cited, without tags or fusion partners. Where a name states a change or a piece, a line headed by the entry shows the natural chain unless it says otherwise.
UniProt P31749: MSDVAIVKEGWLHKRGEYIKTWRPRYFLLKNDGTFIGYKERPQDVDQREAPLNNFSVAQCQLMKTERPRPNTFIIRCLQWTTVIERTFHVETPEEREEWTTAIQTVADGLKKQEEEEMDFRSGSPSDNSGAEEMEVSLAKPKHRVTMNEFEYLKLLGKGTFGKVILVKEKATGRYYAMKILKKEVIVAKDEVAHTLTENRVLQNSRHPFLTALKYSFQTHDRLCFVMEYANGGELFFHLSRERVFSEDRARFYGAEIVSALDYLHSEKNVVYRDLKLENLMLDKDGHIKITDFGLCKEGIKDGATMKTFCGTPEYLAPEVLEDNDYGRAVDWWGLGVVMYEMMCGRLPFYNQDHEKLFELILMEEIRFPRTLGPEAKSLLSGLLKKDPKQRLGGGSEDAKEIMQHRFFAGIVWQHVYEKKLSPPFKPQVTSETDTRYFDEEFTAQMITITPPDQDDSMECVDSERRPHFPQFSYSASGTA

Target: AKT1 WT (Homo sapiens (Human), UniProt P31749)
Test: Live cell target engagement (NanoBRET) in HEK293 cells
Assay type: cell-based
Conditions: HEK293, 2 hours at 37° C.

`Nc1ncccc1-c1nc2ccc(N3C4CCC3COC4)nc2n1-c1ccc(CNC(=O)Cc2ccc(C=O)c(O)c2)cc1` [Example 9, N-(4-(2-(2-aminopyridin-3-yl)-5-(3-oxa-8-azabicyclo[3.2.1]octan-8-yl)-3H-imidazo[4,5-b]pyridin-3-yl)benzyl)-2-(4-formyl-3-hydroxyphenyl)acetamide] gave an IC50 greater than 500 nM.
